# From US20090136470A1, “REGULATORY T CELLS AND METHODS OF MAKING AND USING SAME” (priority 2007, published 2009)
# Tested on: CD8^+T cells from OT-I TCR transgenic mice
# Conditions: OVAp, spleen dendritic cells, TGF-β1
# Method: The culture medium used for dendritic cell-T cell cultures was Iscove's modified Dulbecco medium (IMDM) (Gibco, USA) supplemented with 10% heat-inactivated FCS, 2 mM L-glutamine, 100 U/ml penicillin, 100 μg/ml streptomycin, and 5 mM β-mercaptoethanol (all Sigma, USA). […] For dendritic cell-T cell cultures, 2×10^4 dendritic cells and 1×10^5 T cells were cultured in a volume of 200 μl (96-well plates). For irradiated APC-T cell cultures, 5×10^5 APCs and 1×10^5 T cells were cultured in a volume of 200 μl in 96-well plates (2×10^6 APCs and 0.5×10^6 T cells per well in 48-well plates). […] For the study shown in FIG. 4A, after sorting of naive CD4^+ cells (CD25^−CD44^lowCD62L^+), cells were washed twice in PBS+0.1% BSA, counted and labeled with 2 μM of CFSE (Carboxyfluorescein diacetate, succinimidyl ester) (Molecular Probes, USA) at a concentration of 5−10×10^6 cells per ml in PBS-0.1% BSA.
compound,measurement,value
"CC1=C(/C=C/C(C)=C/C=C/C(C)=C/C(=O)O)C(C)(C)CCC1 [RA, All-trans retinoic acid]",synergistic effect on TGF-b-dependent Foxp3^+ T cell differentiation in CD8^+T cells,also apparent with CD8^+T cells
